Values quoted from earlier work as cited in PMC4871277 (Biochemical pharmacology, 2015).

Target: T1, HDAC8 (Homo sapiens, UniProt Q9BY41)
T1 sequence (Q9BY41 1-377): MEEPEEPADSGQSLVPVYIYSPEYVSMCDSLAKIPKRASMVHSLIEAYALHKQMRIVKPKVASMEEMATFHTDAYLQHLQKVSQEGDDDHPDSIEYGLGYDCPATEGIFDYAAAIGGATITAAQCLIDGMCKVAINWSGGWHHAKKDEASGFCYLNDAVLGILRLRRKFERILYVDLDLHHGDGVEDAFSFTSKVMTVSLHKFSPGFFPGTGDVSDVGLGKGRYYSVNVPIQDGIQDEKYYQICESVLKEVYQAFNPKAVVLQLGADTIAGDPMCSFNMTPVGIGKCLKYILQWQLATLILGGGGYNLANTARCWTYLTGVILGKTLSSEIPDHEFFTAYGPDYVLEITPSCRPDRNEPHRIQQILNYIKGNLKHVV
Conditions: read-out: Ki value HDAC8; determined at the authors' lab previously; cited from earlier work

SMILES: O=C(CCCCCCC(=O)Nc1ccccc1)NO [SAHA, suberanilohydroxamic acid]
- Ki: 1 ± 0.2 nM
